How the values were obtained:
hABHD6 = hABHD6 (Homo sapiens, UniProt Q9BV23)
hFAAH = hFAAH (Homo sapiens, UniProt O00519); experiment: fluorometric inhibition assay (data not presented)
[1] = target: hMGL (monoacylglycerol lipase) (Homo sapiens, UniProt Q99685); experiment: fluorometric inhibition assay (data not presented)

The chains behind the UniProt entries cited, without tags or fusion partners.
UniProt Q9BV23, whole entry: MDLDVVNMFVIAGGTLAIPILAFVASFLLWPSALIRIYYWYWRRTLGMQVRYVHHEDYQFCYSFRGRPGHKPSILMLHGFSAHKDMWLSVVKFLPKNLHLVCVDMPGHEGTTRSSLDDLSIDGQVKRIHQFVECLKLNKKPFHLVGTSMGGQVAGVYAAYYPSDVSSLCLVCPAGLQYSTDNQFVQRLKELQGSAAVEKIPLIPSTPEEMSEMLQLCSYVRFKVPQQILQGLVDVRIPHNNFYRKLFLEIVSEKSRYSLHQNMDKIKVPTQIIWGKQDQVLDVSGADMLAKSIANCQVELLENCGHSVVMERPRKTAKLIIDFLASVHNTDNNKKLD
UniProt O00519, whole entry: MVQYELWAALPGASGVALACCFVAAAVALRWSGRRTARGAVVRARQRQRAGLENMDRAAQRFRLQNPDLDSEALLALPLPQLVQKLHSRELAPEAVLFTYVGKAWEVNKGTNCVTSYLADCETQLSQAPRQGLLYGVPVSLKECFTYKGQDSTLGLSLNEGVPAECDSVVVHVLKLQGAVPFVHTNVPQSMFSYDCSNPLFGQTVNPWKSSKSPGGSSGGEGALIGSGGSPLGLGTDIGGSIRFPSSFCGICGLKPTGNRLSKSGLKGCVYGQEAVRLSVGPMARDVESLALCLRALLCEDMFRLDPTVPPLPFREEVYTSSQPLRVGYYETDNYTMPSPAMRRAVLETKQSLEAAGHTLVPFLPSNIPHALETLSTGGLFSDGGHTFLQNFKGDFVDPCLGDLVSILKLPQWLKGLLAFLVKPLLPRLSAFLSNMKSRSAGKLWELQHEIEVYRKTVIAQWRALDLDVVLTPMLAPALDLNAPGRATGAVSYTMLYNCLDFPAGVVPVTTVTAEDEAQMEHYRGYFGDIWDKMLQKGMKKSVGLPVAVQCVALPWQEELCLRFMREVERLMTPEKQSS
UniProt Q99685, whole entry: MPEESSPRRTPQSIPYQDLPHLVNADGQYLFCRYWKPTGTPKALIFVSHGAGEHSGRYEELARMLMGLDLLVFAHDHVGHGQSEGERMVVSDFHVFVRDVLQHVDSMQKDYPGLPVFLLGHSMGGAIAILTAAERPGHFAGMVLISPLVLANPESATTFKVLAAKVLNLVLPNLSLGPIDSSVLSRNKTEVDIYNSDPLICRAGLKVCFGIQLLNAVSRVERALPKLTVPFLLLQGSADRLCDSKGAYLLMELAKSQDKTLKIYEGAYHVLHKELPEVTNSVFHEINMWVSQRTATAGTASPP

Substance: FP-rhodamine
- IC50 (hABHD6): 3000 nM
- IC50 (hFAAH): 160 nM
- IC50 [1]: 280 nM

— PMC6351631, “Biochemical and Proteomic Characterization of Recombinant Human α/β Hydrolase Domain 6” (Scientific Reports, 2019)
